Measurements: article PMC9471048
Where two headings read alike, the source gives them in different places.

Protein sequences, listed by entry. Tags and fused reporters are not part of them.
UniProt P08588, whole entry: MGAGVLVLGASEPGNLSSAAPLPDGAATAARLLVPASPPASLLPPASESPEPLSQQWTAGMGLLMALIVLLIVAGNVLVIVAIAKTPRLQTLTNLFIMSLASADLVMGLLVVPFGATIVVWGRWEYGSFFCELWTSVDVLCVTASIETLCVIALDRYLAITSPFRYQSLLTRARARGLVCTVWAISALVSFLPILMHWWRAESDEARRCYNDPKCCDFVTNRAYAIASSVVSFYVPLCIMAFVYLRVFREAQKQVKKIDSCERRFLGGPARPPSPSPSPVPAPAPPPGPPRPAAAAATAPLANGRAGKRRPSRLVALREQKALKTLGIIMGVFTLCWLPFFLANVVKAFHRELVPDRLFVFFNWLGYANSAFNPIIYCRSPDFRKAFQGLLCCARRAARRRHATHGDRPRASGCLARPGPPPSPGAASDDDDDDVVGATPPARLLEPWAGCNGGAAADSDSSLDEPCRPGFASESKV
UniProt P07550, whole entry: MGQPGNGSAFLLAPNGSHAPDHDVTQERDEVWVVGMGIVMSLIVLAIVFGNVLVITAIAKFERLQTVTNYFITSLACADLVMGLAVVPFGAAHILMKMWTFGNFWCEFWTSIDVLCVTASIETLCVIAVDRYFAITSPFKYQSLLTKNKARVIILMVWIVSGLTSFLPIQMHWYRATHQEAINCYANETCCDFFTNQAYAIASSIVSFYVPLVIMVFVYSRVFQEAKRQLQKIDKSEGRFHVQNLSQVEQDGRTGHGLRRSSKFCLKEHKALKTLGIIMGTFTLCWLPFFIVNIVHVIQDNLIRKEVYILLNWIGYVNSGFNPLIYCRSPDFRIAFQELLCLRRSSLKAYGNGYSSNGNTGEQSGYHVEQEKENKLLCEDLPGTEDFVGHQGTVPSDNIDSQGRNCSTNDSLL
UniProt P08913, whole entry: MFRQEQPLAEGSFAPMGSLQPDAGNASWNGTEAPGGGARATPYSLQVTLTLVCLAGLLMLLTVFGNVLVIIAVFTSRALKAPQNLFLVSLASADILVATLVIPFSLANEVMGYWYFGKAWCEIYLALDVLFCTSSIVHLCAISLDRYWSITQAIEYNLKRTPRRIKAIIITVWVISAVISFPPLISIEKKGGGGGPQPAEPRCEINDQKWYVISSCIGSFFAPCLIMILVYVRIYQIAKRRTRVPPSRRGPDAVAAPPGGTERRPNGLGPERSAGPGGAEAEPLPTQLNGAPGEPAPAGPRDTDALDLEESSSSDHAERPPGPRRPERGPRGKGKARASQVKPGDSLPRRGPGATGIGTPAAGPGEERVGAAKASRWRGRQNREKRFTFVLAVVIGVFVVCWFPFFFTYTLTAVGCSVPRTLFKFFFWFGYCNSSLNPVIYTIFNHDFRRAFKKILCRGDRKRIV
UniProt P18089, whole entry: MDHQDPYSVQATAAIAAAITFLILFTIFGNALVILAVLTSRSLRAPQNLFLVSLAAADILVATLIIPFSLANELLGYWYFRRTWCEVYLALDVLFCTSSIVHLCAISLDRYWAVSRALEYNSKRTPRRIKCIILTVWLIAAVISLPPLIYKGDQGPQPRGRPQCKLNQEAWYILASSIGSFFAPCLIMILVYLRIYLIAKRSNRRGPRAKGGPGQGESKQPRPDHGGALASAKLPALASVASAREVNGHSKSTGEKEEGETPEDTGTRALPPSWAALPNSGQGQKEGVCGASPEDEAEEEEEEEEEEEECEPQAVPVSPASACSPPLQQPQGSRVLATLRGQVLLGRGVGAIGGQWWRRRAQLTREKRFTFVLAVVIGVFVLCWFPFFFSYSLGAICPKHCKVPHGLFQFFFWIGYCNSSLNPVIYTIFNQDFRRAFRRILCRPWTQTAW

Columns and labels:
human β1‐adrenoceptor [1] = target: T1, human β1‐adrenoceptor (Homo sapiens, UniProt P08588); assay: 3H-CGP12177 whole cell binding in CHO-β1 cells; conditions: for KD (log), 3H-CGP12177 whole cell binding CHO-β1: given as negative log KD, app = apparent affinity
human β2‐adrenoceptor [2] = target: T2, human β2‐adrenoceptor (Homo sapiens, UniProt P07550); assay: 3H-CGP12177 whole cell binding in CHO-β2 cells; conditions: for KD (log), 3H-CGP12177 whole cell binding CHO-β2: given as negative log KD, ep = early plateau
human β1‐adrenoceptor [3] = target: T1, human β1‐adrenoceptor; assay: CRE-SPAP production in CHO-β1 cells; conditions: for Log EC50 / Log IC50: CRE-SPAP; for Log EC50: log values; for Log IC50: with 3 µM forskolin (inhibitory response)
human β2‐adrenoceptor [4] = target: T2, human β2‐adrenoceptor; assay: CRE-SPAP production in CHO-β2 cells; conditions: for Log EC50 / Log IC50: CRE-SPAP; for Log EC50: log values; for Log IC50: with 3 µM forskolin (inhibitory response)
human α2A‐adrenoceptor [5] = target: T3, human α2A‐adrenoceptor (Homo sapiens, UniProt P08913); assay: 3H‐rauwolscine whole cell binding in CHO‐α2A cells; conditions: read-out: IC50 in binding, CHO‐α2A, no KD obtained
human α2B‐adrenoceptor [6] = target: T4, human α2B‐adrenoceptor (Homo sapiens, UniProt P18089); assay: 3H‐rauwolscine whole cell binding in CHO‐α2B cells
human α2A‐adrenoceptor [7] = target: T3, human α2A‐adrenoceptor; assay: CRE‐SPAP gene transcription in CHO‐α2A cells
human α2B‐adrenoceptor [8] = target: T4, human α2B‐adrenoceptor; assay: CRE‐SPAP gene transcription in CHO‐α2B cells
[9] = log of top concentration used, KD not calculable
[10] = no forskolin, top of curve not obtained, at maximum concentration 100µM

Compound	KD (log), 3H-CGP12177 whole cell binding CHO-β1 (human β1‐adrenoceptor [1])	KD (log), 3H-CGP12177 whole cell binding CHO-β2 (human β2‐adrenoceptor [2])	Log EC50 (human β1‐adrenoceptor [3]; no forskolin)	Log IC50 (human β1‐adrenoceptor [3])	Log EC50 (human β2‐adrenoceptor [4]; no forskolin)	Log IC50 (human β2‐adrenoceptor [4])	other results
C1=C(c2cnc[nH]2)c2ccsc2CC1 [RWJ52353]	No binding	No binding	No resp	No resp	No resp	No resp	
C=CCN1CCc2nc(N)sc2CC1 [BHT920]			No resp	No resp		No resp	IC50 (log), 3H-CGP12177 whole cell binding CHO-β1 (human β1‐adrenoceptor [1]; [9]): IC50>-3; IC50 (log), 3H-CGP12177 whole cell binding CHO-β2 (human β2‐adrenoceptor [2]; [9]): IC50>-3
CCN1CCc2nc(N)oc2CC1 [BHT933]	no binding	no binding	No resp	No resp	No resp	No resp	
CS(=O)(=O)Nc1c(O)ccc2c1CCCC2C1=NCCN1 (stereo not drawn) [A61603]	no binding	no binding		No resp		No resp	IC50 (human α2A‐adrenoceptor [5]): 100 µM; IC50 (human α2B‐adrenoceptor [6]; read-out: IC50 (binding, KD not calculable), CHO‐α2B, top concentration used): > 100 µM; IC50 (human α2B‐adrenoceptor [6]; read-out: IC50 in binding, CHO‐α2B, no KD obtained): > 100 µM; % 10µM isop, response at the maximum concentration of agonist used (human β1‐adrenoceptor [3]; [10]): 9.4 ± 5.0%; % 10µM isop, response at the maximum concentration of agonist used (human β2‐adrenoceptor [4]; [10]): 48.4 ± 13.0%; Log EC50 (Gs), CRE‐SPAP (with forskolin) (human α2A‐adrenoceptor [7]; CHO‐α2A (cell line 1), 3 μM forskolin, stimulatory part of biphasic response): −5.66 ± 0.13; Log EC50 (Gs), CRE‐SPAP (without forskolin) (human α2A‐adrenoceptor [7]; CHO‐α2A (cell line 1), absence of forskolin): −5.48 ± 0.33; % 3 μM forskolin, CRE‐SPAP (without forskolin) (human α2A‐adrenoceptor [7]; CHO‐α2A (cell line 1), maximum response compared to 3 μM forskolin): 5.9 ± 2.2%; Log IC50 (Gi), CRE‐SPAP (with forskolin) (human α2A‐adrenoceptor [7]; CHO‐α2A (cell line 1, 5830 fmol/mg protein), 3 μM forskolin): −6.95 ± 0.06; Log efficacy ratio (KD/IC50) (human α2A‐adrenoceptor [7]; CHO‐α2A, binding KD / Gi IC50 of CRE‐SPAP): >2.95; Log IC50 (Gi), CRE‐SPAP (with forskolin) (human α2B‐adrenoceptor [8]; 3 μM forskolin): −7.83 ± 0.05; Log EC50 (Gs), CRE‐SPAP (with forskolin) (human α2B‐adrenoceptor [8]; 3 μM forskolin, stimulatory part of biphasic response): −6.77 ± 0.05; Log EC50 (Gs), CRE‐SPAP (without forskolin) (human α2B‐adrenoceptor [8]; absence of forskolin): −6.66 ± 0.03; Log efficacy ratio (KD/IC50) (human α2B‐adrenoceptor [8]; binding KD / Gi IC50 of CRE‐SPAP): >3.83; % 3 μM forskolin, CRE‐SPAP (without forskolin) (human α2B‐adrenoceptor [8]; maximum response compared to 3 μM forskolin): 185.2 ± 9.3%
CCc1cccc(CC)c1NC1=NCCN1 [ST‐91]	No binding	No binding	No resp	No resp	No resp	No resp	
